High-throughput results from PubChem BioAssay.
Rango complex inh – inhibitors of Rango-importin beta complex formation; AID 540263; 340,000 tested, 0.031% active; Rango CFP/YFP FRET sensor + importin beta, 45 min; Potency, µM (series often up to 92.2 µM); note: nearly all actives have a fitted effect of over 15% in size
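Inhibition scored from the CFP 486 nm/YFP 530 nm FRET ratio 45 min after adding 0.125 microM importin beta to 50 nM Rango biosensor preincubated 5 min with compound (room temperature, PBS with DTT, Tween-20, BSA). No-importin wells as positive control.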
gsp antagonist – antagonizes gsp, the McCune-Albright syndrome mutation; gsp-mutant cells, cAMP HTRF, 30 min; Potency, µM (top dose mostly 76.9 µM), most hits filed as inhibitors; 340,000 tested, 0.4% active; AID 624288; calls by dose curve; cell line not stated here;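 note: intracellular cAMP measured with PDE inhibitor Ro 20-1724 present during compound exposure; nearly all actives have a fitted effect of over 65% in size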
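G418-selected cells were plated in DMEM/10% FBS for 16-24 h at 37C, then treated with compounds plus the PDE inhibitor […] (300 uM solution added) for 30 min at 37C. Intracellular cAMP was measured by HTRF after 30 min lysis at room temperature.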
gsp ag – activates gsp, the McCune-Albright syndrome mutation; gsp mutant cells, cAMP HTRF, 30 min; Potency, µM (doses to about 76.9 µM), most hits filed as activators; AID 624287; 340,000 tested, 0.13% active; active = well fitted activation curve with a large enough effect; inconclusive = small, poorly fitted or top-dose-only effect, or another doubt; inactive = no such curve, though single readings can be large or run the other way; cell line not stated here;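 note: phosphodiesterase inhibitor Ro 20-1724 added with compounds to block cAMP breakdown; nearly all actives have a fitted effect of over 60% in size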
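Cells in DMEM/10% FBS with G418 were pretreated with compounds in DMSO plus […] (300 uM stock) for 30 min at 37C. cAMP was measured by HTRF (cAMP-d2 plus anti-cAMP antibody-K) after 30 min at room temperature.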
Rango release inh – prevents RanGTP from dissociating the Rango-importin beta complex; O95149+P62826; Biochemical FRET Rango-importin beta, RanGTP-induced dissociation; Potency, µM (doses to about 46.1 µM); 340,000 tested, 0.071% active; AID 540253; note: nearly all actives have a fitted effect of over 45% in size
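Compounds sat 5 min at room temperature with 0.1 uM Rango biosensor plus 0.25 uM importin beta, then FRET pre-read. RanGTP-RCC1 (0.6 uM Ran, 2mM GTP, 0.2 uM RCC1) added for 45 min, and the CFP/YFP post-read measured blocked complex dissociation.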
A number is an active result; . = inactive; ? = inconclusive; / = no result; [ ] = another dose, or the depositor's remark. Most compounds without a hit are left out; they make up all but 0.66% or so of the library. Unless noted, calls come from the whole dose curve.

SMILES	Rango complex inh	gsp antagonist	gsp ag	Rango release inh
Cc1ccc([C@H]2C[C@H](O)[C@@H](n3cc(C4CC4)nn3)CN2C(=O)C2CCCCC2)cc1	/	/	.	/
N#Cc1ccccc1S(=O)(=O)N1CCN(C(=O)CN(Cc2ccco2)Cc2cccs2)CC1	/	/	.	/
N#C/C(=C\c1cc(Cl)cc(Cl)c1O)C(=O)NC1CCCCC1	?	.	.	6.5µM
Cn1c(=O)c2c(nc(CCC3CCCC3)n2C)n(C)c1=O	.	.	11µM	.
COc1ccc(OC)c(CN2CCN(C(=O)c3cc(S(=O)(=O)N4CCOCC4)ccc3C)CC2)c1	.	.	.	.
COc1cccc2sc3cc(NCc4ccc5c(c4)OCO5)ccc3c(=O)c12	?	.	/	21µM
COc1cc2sc3cc(NCc4ccc5c(c4)OCO5)ccc3c(=O)c2cc1OC	?	.	/	?
COc1ccccc1-c1cnc2c(c1)C(=O)N([C@@H](C)CO)C[C@@H](C)[C@H](CN(C)C(=O)c1cccnc1)O2	/	/	.	/
Cc1noc(NS(=O)(=O)c2ccc(N3C(=O)c4ccccc4C3=O)cc2)c1C	.	.	2.2µM	.
Cc1ccnc(NS(=O)(=O)c2ccc(N3C(=O)c4ccccc4C3=O)cc2)n1	.	.	25µM	.
CSc1ccc(S(=O)(=O)N(C)Cc2ccccc2)cc1	.	35µM	.	.
CN(Cc1ccccc1)S(=O)(=O)c1ccc(NS(C)(=O)=O)cc1	.	.	.	.
CC(=O)Nc1cc2c3c(c1)CC(=O)N3CCC2	.	50µM	.	.
CC(=O)Nc1cc2c3c(c1)CCC(=O)N3CCC2	.	.	.	.
N#CCC(=O)Nc1ccc(C(=O)Nc2cccc(S(=O)(=O)N3CCCC3)c2)cc1	/	/	.	/
COc1ccc(N(CC(=O)NC2CC3CCC2C3)S(=O)(=O)c2ccc(C)cc2)cc1Cl (stereo not drawn)	/	/	.	/
Cc1ccc(C(=O)NCC(=O)OCC(=O)c2ccc(Br)s2)cc1	.	.	14µM	.
Cc1ccc(C(=O)NCC(=O)OCC(=O)c2ccc(Cl)s2)cc1	.	.	.	.
O=C(CNS(=O)(=O)c1ccc2ccccc2c1)OCC(=O)c1ccc(Br)s1	.	.	8.9µM	.
Cc1cc(C(=O)OCC(=O)c2ccc(Br)s2)no1	.	.	35µM	.
CCCOc1ccc(/C=N/Nc2ccc(C(=O)O)cc2)c(OCCC)c1	.	10µM	.[15.4 µM]	.
CCCOc1ccc(/C=N/Nc2cccc([N+](=O)[O-])c2)c(O)c1	.	.	.[15.4 µM]	.
Cc1cc(Cc2cc(C)c(O)c(CO)c2)cc(CO)c1O	65µM	.	.	.
CCN(CC)C(=O)C1=C(C)N(CCC2=CCCCC2)C(=O)C(CC(=O)NC(c2ccccc2)c2ccccc2)C1 (stereo not drawn)	/	/	.	/
CCOc1ccc(-c2cccc(NS(=O)(=O)c3cccc([N+](=O)[O-])c3)c2)nn1	/	/	.	/
SMILES	Rango complex inh	gsp antagonist	gsp ag	Rango release inh
COc1ccc2c(c1)C(=NNc1ccc(C(=O)O)cc1)c1cc(OC)ccc1-2	.	.	13µM	.
CCN1C(=O)[C@H]2[C@@H](c3ccc(C)cc3)N[C@]3(CCCN(Cc4ccc(Cl)cc4)C3=O)[C@H]2C1=O	/	/	.	/
S=C1SC2(CCCCCC2)NC2=C1CCCCC2	/	/	.	/
Cc1ccsc1C(=O)NNC(=O)c1ccc(NS(=O)(=O)c2cccs2)cc1	?	11µM	.	.
Cc1cccc2c(N=NC(=O)c3ccc(NS(=O)(=O)c4cccs4)cc3)c(O)[nH]c12	.	25µM	.	.
COCc1cc(C)nc(SCC(=O)Oc2ccc(Cl)cc2)c1C#N	?	.	.[15.4 µM]	9.2µM
COCc1cc(C)nc(SCC(=O)Oc2ccccc2)c1C#N	?	.	.[15.4 µM]	?
Cc1ccc(Cl)cc1N1CCN(C(=O)Cn2ccc3ccccc3c2=O)CC1	.	25µM	.	.
COc1cccc(-c2noc(C3CCCN(C(=O)c4ccccc4OC)C3)n2)c1 (stereo not drawn)	.	35µM	.	.
CCOC(=O)c1c(C)cc2c(CO)n[nH]c(=O)c2c1C	/	/	.	/
CC1C(=O)N(Cc2cn(Cc3ccco3)nn2)CCS(=O)(=O)N1Cc1ccc(-c2ccc(Cl)cc2)cc1 (stereo not drawn)	/	/	.	/
CCc1c(C(=O)O)[nH]c2ccc(Br)cc12	.	.	4µM	.
[N-]=C=C1C(=S)NC(=O)[C@H]([n+]2ccccc2)[C@H]1c1ccc(Cl)cc1	.	.	20µM	?
COc1ccc(C(O)c2cnc(C)n2Cc2ccccc2)cc1 (stereo not drawn)	/	/	.	/
Cc1noc(C)c1C(=O)OC(C)C(=O)c1ccc(C(C)(C)C)cc1 (stereo not drawn)	/	/	.	/
CC(=O)N1c2ccc(S(=O)(=O)N3CCC(C(=O)NCc4ccc(Cl)cc4)CC3)cc2CC1C (stereo not drawn)	.	?	.	.
CC(=O)N1c2ccc(S(=O)(=O)N3CCC(C(=O)NCCc4ccc(Cl)cc4)CC3)cc2CC1C (stereo not drawn)	.	35µM	?	.
Cc1ccc(-c2nc(NCc3cccnc3)c3ccccc3n2)cc1	.	35µM	.	.
O=C(NCCO)c1cc2cc(Cl)cc(Cl)c2oc1=O	?	.	.[15.4 µM]	18µM
C[C@H]1CN([C@@H](C)CO)C(=O)CCCn2cc(nn2)CO[C@@H]1CN(C)C(=O)Nc1cccc(F)c1	/	/	.	/
C=CCOc1ccc(C[C@H](N)C(=O)NC[C@H]2O[C@@H](n3cc(C)c(=O)[nH]c3=O)C[C@@H]2O)cc1	/	/	.	/
CCN(CC)S(=O)(=O)c1cc([N+](=O)[O-])ccc1NNC(=O)Nc1ccc(F)cc1	.	50µM	.	.
Cc1cccc(CC2CC(=O)N(c3nc4ccccc4s3)C2=O)c1 (stereo not drawn)	.	.	.	.
CC(=O)c1nc(N2C(=O)CC(Cc3ccccc3)C2=O)sc1C (stereo not drawn)	.	.	16µM	.
Cc1cc(C)cc(OCC(=O)NNC(=O)CC(C)c2ccccc2)c1 (stereo not drawn)	/	/	.	/
COc1cccc(C(=O)Oc2c(Br)cc(Br)cc2/C=N/NC(=O)c2cc(C)[nH]n2)c1	?	?	?	18µM
C#CCOCCOCCOCCNc1nc(N2CCN(C(=O)[C@H](CCCN=C(N)N)n3cc(C(N)[C@H](C)CC)nn3)CC2)nc(N2CCN(C(=O)[C@H](CCCN=C(N)N)n3cc(C(N)[C@@H](C)CC)nn3)CC2)n1 (stereo partly drawn)	65µM	.	/	?
C#CCOCCOCCOCCNc1nc(N2CCN(C(=O)[C@H](CCCCN)n3cc([C@@H](N)C(C)CC)nn3)CC2)nc(N2CCN(C(=O)[C@H](CCCCN)n3cc([C@@H](N)CC(C)C)nn3)CC2)n1 (stereo partly drawn)	52µM	.	/	.
C#CCOCCOCCOCCNc1nc(N2CCN(C(=O)CCCCCCCCCCNC(=O)[C@H](CCCCN)n3cc(CCCC(=O)O)nn3)CC2)nc(N2CCN(C(=O)CCCCCCCCCCNC(=O)[C@H](CCCN=C(N)N)n3cc(C[C@@H](C)CC)nn3)CC2)n1	.	.	/	.
